# Compound activity (PubChem)
# DT40 TDP1 CPT = growth inhibition of DT40 Tdp1-/-;hTDP1 cells with camptothecin (screen for TDP1 inhibitors); chicken DT40 Tdp1-/-;hTDP1 cells + 20 nM CPT, ATP luminescence, 48 h; Potency, µM (doses to about 46.2 µM), for inactives: top-dose activity change, negative = growth inhibition, hits mostly inhibitors; 420,000 compounds, 12% hits; note: potency is the fitted concentration of half-maximal effect; % is set by controls: 0 for no effect and ±100 for the full control effect; nearly all actives have a fitted effect of over 55% in size
#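 Chicken DT40 Tdp1-/- cells complemented with human TDP1, 400 cells/well, exposed to compounds plus 20 nM camptothecin for at least 48 h at 37 C; viability read as ATP content by CellTiter-Glo luminescence.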
# TDP1 inh = TDP1 (human) enzyme inhibition | Q9NUW8 | recombinant TDP1, AlphaScreen DNA substrate cleavage | Potency, µM (highest dose often 130 µM), inactives show top-dose activity change, negative = inhibition, hits mostly inhibitors | 350,000 compounds, 0.28% hits | AID 485290; note: potency is the fitted concentration of half-maximal effect; % is set by controls: 0 for no effect and ±100 for the full control effect; nearly all actives have a fitted effect of over 40% in size
#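 Recombinant E. coli-expressed Tdp1 (1 nM) preincubated with compound 15 min at RT, then 5'-biotin/3'-phosphotyrosine-FITC DNA substrate (15 nM) added for 5 min. AlphaScreen beads (10 ug/ml) added, 10 min RT; tyrosine-FITC cleavage read as signal loss.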
# TDP1 cell noCPT = qHTS for Inhibitors of human tyrosyl-DNA phosphodiesterase 1 (TDP1): qHTS in cells in absence of CPT. DT40 Tdp1-/- hTDP1 cells, no CPT, ATP luminescence, 48 h. Potency, µM (series often up to 46.2 µM), for the others: at the top dose activity change, negative = growth inhibition, usual class: inhibitors. 420,000 compounds, 15% hits. AID 686978, 2013; note: potency is the fitted concentration of half-maximal effect; % is set by controls: 0 for no effect and ±100 for the full control effect; nearly all actives have a fitted effect of over 55% in size
#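 No-CPT arm: Tdp1-/-;hTDP1 DT40 cells (400/well) plus compounds, incubated ≥48 hr at 37 °C. Readout CellTiter-Glo luminescence.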
# uPA surface inh = cell surface uPA generation inhibition; cell surface uPA generation assay, qHTS; Potency, µM (titrated, usually from 38.3 µM), for the others: at the top dose activity change, negative = inhibition, most hits filed as inhibitors; 330,000 compounds, 0.31% hits; AID 540303; active = well fitted inhibition curve with a large enough effect; inconclusive = small, poorly fitted or top-dose-only effect; inactive = no such curve, though single readings can be large or run the other way; tested in mouse RAW 264.7 cells; note: potency is the fitted concentration of half-maximal effect; % is set by controls: 0 for no effect and ±100 for the full control effect; nearly all actives have a fitted effect of over 55% in size
# miR-21 reporter = raises the signal of a miR-21 reporter | AID 2288 | 340,000 tested, under 10 active | Potency, µM (series often up to 38.3 µM), without a hit: at the highest dose reporter change, positive = more light | HeLa miR-21 FLuc reporter, luciferase, 48 h; active = well fitted rising curve with a large enough effect; inconclusive = small, poorly fitted or top-dose-only effect; inactive = no such curve, though single readings can be large or run the other way;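 further: % of control where 0% means no effect; miR-21 action dims this reporter so a rising signal means less miR-21 action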
#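 Luminescence from a firefly luciferase reporter carrying a miR-21 binding site downstream, stably expressed under a CMV promoter in HeLa cells that make miR-21 endogenously, reports miRNA modulation after 48 h compound exposure up to approximately 40uM final.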
# Active calls of the source: *; ? = inconclusive; . = no result given; [ ] = another dose, or the depositor's remark. Compounds with a hit are over-represented: about 16% of the library has one in this group of screens. Unless noted, calls come from the whole dose curve; as a rule, active = well fitted curve in the direction sought with a large enough effect; inconclusive = small, poorly fitted or top-dose-only effect, or another doubt; inactive = no such curve, though single readings can be large; an effect the other way counts as inactive or inconclusive.
no. | smiles | DT40 TDP1 CPT | TDP1 inh | TDP1 cell noCPT
1 | CCN1C(=O)[C@H]2[C@@H](c3ccc(-c4ccc(Cl)c(Cl)c4)cc3)N3CCCC[C@@]3(C(=O)OC)[C@H]2C1=O | 10µM* | 4% | 6.5µM*
2 | CCN1C(=O)[C@H]2[C@@H](c3ccc(-c4cccc(Cl)c4)cc3)N3CCCC[C@@]3(C(=O)OC)[C@H]2C1=O | ? | 4% | ?
3 | CCN1C(=O)[C@@H]2[C@@H](c3ccc(-c4ccc(Cl)c(Cl)c4)cc3)N3CCC[C@@]3(C(=O)OC)[C@@H]2C1=O | 8.2µM* | 7% | 7.3µM*
4 | O=S(=O)(c1cccc2nsnc12)N1CCc2ccccc2C1 | 0% | 6% | -15%
5 | COc1ccc(C(C#N)=Cc2cccc(OC)c2OC)cc1 | ? | . | 23µM*
6 | CCN(CC)C(=O)c1c(NC(=O)c2ccccc2F)sc2c1CCC(C(C)(C)C)C2 (configuration not stated) | 23µM* | . | ?
7 | CC(/C=N/NC(=O)c1nnn(-c2nonc2N)c1CN1CCCCC1)c1ccccc1 (configuration not stated) | ? | . | 2%
8 | CCOC(=O)c1c(C)n(C)c2ccc(OCC(O)CN3C(=O)c4ccccc4S3(=O)=O)cc12 (configuration not stated) | 16µM* | -5% | 16µM*
9 | CN(C)S(=O)(=O)c1ccc(C(=O)NCC[N+]2(C)CCCCCC2)o1 | 1% | . | 10%
10 | CC(=O)c1ccc(N2CCN(c3ccc(S(=O)(=O)NCCCN(C)C)cc3[N+](=O)[O-])CC2)cc1 | 23µM* | 5% | 23µM*
11 | CN(C)CCNS(=O)(=O)c1ccc(N2CCc3ccccc32)c([N+](=O)[O-])c1 | 16µM* | 19% | 26µM*
12 | CN(C)CCCNS(=O)(=O)c1ccc(-n2nnc3ccccc32)c([N+](=O)[O-])c1 | ? | 4%[0.0935 µM] | ?

no. | uPA surface inh | miR-21 reporter
1 | 5% | .
2 | 12% | .
3 | -2% | .
4 | . | -34%
5 | . | .
6 | . | 9%
7 | -6% | .
8 | . | 1%
9 | 9% | 0%
10 | ? | 15%
11 | -2% | 22%
12 | -15% | 0%

# Only miR-21 reporter and DT40 TDP1 CPT, for some of the entries so far:
no.	molecule	miR-21 reporter	DT40 TDP1 CPT
9	CN(C)S(=O)(=O)c1ccc(C(=O)NCC[N+]2(C)CCCCCC2)o1	0%	1%
3	CCN1C(=O)[C@@H]2[C@@H](c3ccc(-c4ccc(Cl)c(Cl)c4)cc3)N3CCC[C@@]3(C(=O)OC)[C@@H]2C1=O	.	8.2µM*

# The main list resumes, repeating the two entries before the break.
no. | smiles | DT40 TDP1 CPT | TDP1 inh | TDP1 cell noCPT
11 | CN(C)CCNS(=O)(=O)c1ccc(N2CCc3ccccc32)c([N+](=O)[O-])c1 | 16µM* | 19% | 26µM*
12 | CN(C)CCCNS(=O)(=O)c1ccc(-n2nnc3ccccc32)c([N+](=O)[O-])c1 | ? | 4%[0.0935 µM] | ?
13 | CC(=O)c1ccc(N2CCN(c3ccc(S(=O)(=O)NCCN(C)C)cc3[N+](=O)[O-])CC2)cc1 | ? | -1% | ?
14 | CN(C)CCCNS(=O)(=O)c1ccc(N2CCN(Cc3ccc4c(c3)OCO4)CC2)c([N+](=O)[O-])c1 | 23µM* | 0%[0.0935 µM] | 21µM*
15 | CCOC(=O)C1CCN(S(=O)(=O)c2ccc(Cl)s2)CC1 | -13% | 4% | -13%
16 | COc1cccc(NC(=O)CSc2nnc(CNC(=O)c3ccccc3)n2C)c1 | -4% | 5% | -6%
17 | O=C(c1cc[n+]([O-])cc1)N1CCCC(N2CCN(c3cccc(C(F)(F)F)c3)CC2)C1 (configuration not stated) | 10µM* | 1% | ?
18 | O=C(c1ccccn1)N1CCCC(N2CCN(c3cccc(C(F)(F)F)c3)CC2)C1 (configuration not stated) | ? | 1% | 15µM*
19 | O=C(c1ccsc1)N1CCCC(N2CCN(c3cccc(C(F)(F)F)c3)CC2)C1 (configuration not stated) | ? | 5% | ?
20 | O=C(c1ccc(Nc2nccc(-c3cc4ccccc4s3)n2)cc1)N1CCC(N2CCCC2)CC1 | . | 19% | .
21 | OCCN=c1cc(-c2ccccc2)oc2ccc(Cl)cc12 | ? | 8% | 16µM*
22 | CC(C)CN=c1cc(-c2ccccc2)oc2ccc(Cl)cc12 | ? | 3% | ?
23 | CN(C)CCCN=c1cc(-c2ccccc2)oc2ccc(Cl)cc12 | 10µM* | 7% | ?
24 | CC(O)CN=c1cc(-c2ccccc2)oc2ccc(Cl)cc12 (configuration not stated) | ? | -4% | 16µM*

no. | uPA surface inh | miR-21 reporter
11 | -2% | 22%
12 | -15% | 0%
13 | -7% | 14%
14 | -12% | 19%
15 | -3% | 0%
16 | . | 1%
17 | -24% | 0%
18 | -8% | -1%
19 | -4% | 18%
20 | . | .
21 | -13% | 0%
22 | -18% | -18%
23 | -25% | -55%
24 | -13% | -16%

# (more compounds)
no. | smiles | DT40 TDP1 CPT | TDP1 inh | TDP1 cell noCPT
25 | COc1cc(OC)nc(NC(=O)CS(=O)(=O)c2ccccc2)n1 | -11% | 1% | 1%
26 | Cc1cc(N=Cc2c(O)n(-c3cccc(C(F)(F)F)c3)c(=O)c3ccccc23)no1 | 18µM* | 5% | 23µM*
27 | Cc1nnc(N/N=C/c2c(O)n(-c3cccc(C(F)(F)F)c3)c(=O)c3ccccc23)[nH]c1=O | . | 11% | .
28 | Cc1ccc2cc(CN(CCO)Cc3nnnn3Cc3ccc(F)cc3)c(=O)[nH]c2c1 | ? | -5% | ?
29 | O=c1[nH]c2cc3c(cc2cc1CN(CCCO)Cc1nnnn1Cc1ccc(F)cc1)OCO3 | ? | 0% | 12µM*
30 | CCC(c1nnnn1Cc1ccc(OC)cc1)N(CCCO)Cc1cc2cc3c(cc2[nH]c1=O)OCO3 (configuration not stated) | ? | -5% | ?
31 | CC(C)C(c1nnnn1Cc1ccccc1)N(CCCO)Cc1cc2cc3c(cc2[nH]c1=O)OCO3 (configuration not stated) | ? | 2% | 16µM*
32 | O=C(Nc1cc2c(cc1C(=O)c1ccccc1Cl)OCCO2)c1ccccc1 | -12% | 2%[12.3 µM] | -10%
33 | Cc1ccc(OCC2Cn3c(nc4c3c(=O)[nH]c(=O)n4C)O2)cc1C (configuration not stated) | ? | . | 10µM*
34 | CCc1cccc(OCC2Cn3c(nc4c3c(=O)[nH]c(=O)n4C)O2)c1 (configuration not stated) | 8.2µM* | 0% | ?
35 | COc1cc([C@@H]2CC=C(C(=O)O)[C@H](c3cccc(Cl)c3)N2S(=O)(=O)c2ccc(C)cc2)cc(OC)c1OC | -8% | -3% | 8%
36 | Cc1cc(C)c(C(=O)N2CCCC(N3CCN(c4ccc(F)cc4)CC3)C2)o1 (configuration not stated) | ? | 11% | 16µM*

no. | uPA surface inh | miR-21 reporter
25 | 4% | -6%
26 | -7% | 1%
27 | . | -4%
28 | -2% | 2%
29 | 6% | -4%
30 | . | -1%
31 | 15% | -15%
32 | . | 0%
33 | -1% | 0%
34 | 4% | 1%
35 | 9% | .
36 | 3% | -1%

# Following part:
no. | smiles | DT40 TDP1 CPT | TDP1 inh | TDP1 cell noCPT
37 | Cc1nc(C(=O)N2CCCC(N3CCN(c4ccc(F)cc4)CC3)C2)cs1 (configuration not stated) | 21µM* | . | 15µM*
38 | COc1ccc(NCc2nnc(SCc3ccc(Cl)cc3)n2-c2ccccc2)cc1 | ? | 4% | 18µM*
39 | CCOc1ccc(-n2c(SCc3ccc(C#N)cc3)nnc2-c2cccnc2)cc1 | 3% | 12% | -19%
40 | CCOc1ccc(-n2c(SCc3ccc([N+](=O)[O-])cc3)nnc2-c2ccc(OC)cc2)cc1 | 18µM* | 14% | 29µM*

no. | uPA surface inh | miR-21 reporter
37 | . | .
38 | -4% | 8%
39 | 2% | -19%
40 | 4% | 25%
